The numbers were not newly measured in publication PMC8396023, “Peptide Stapling Improves the Sustainability of a Peptide-Based Chimeric Molecule That Induces Targeted Protein Degradation” (International Journal of Molecular Sciences, 2021), which cites them from elsewhere.

For the series the following is noted: reductive environment in the cell.

As to “peptidomimetic estrogen receptor modulators 3 [PERM3]”, the “stability in cell (disulfide bond)” value was “cleaved by the reductive environment in the cell and therefore loses its activity”.
